Test results: patent US20240360179A1, “STAPLED PEPTIDES AND METHODS THEREOF” (FOG PHARMACEUTICALS, INC., priority 2021, published 2024)

The chains behind the UniProt entries cited, without tags or fusion partners.
UniProt P35222, whole entry: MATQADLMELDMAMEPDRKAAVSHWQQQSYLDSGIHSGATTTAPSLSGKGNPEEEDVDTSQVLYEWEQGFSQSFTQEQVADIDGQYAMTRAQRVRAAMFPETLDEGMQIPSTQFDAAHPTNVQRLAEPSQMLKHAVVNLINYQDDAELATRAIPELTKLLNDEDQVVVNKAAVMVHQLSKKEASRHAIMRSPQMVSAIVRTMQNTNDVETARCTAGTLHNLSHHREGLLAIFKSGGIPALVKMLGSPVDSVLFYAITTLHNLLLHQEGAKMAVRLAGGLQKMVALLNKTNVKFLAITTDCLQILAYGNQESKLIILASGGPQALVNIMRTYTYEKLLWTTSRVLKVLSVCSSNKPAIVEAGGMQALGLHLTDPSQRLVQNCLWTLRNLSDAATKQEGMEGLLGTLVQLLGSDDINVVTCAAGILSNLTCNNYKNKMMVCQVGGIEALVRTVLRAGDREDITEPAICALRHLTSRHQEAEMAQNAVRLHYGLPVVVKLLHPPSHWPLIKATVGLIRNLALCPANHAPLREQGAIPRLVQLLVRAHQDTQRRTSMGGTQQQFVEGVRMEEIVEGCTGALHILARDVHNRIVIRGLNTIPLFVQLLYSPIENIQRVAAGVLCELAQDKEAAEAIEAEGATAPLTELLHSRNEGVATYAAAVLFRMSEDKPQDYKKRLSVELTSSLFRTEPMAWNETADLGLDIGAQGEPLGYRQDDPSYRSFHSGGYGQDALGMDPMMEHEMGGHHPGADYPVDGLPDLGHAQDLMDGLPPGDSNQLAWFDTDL

Legend:
[1] = target: beta-catenin/TCF4 interaction (Homo sapiens, UniProt P35222); experiment: cell-based; set-up: host or cells: HEK293; conditions: NanoBRET Abs IC50 (uM)
[2] = target: T1, full-length B-Catenin (Uniprot ID P35222) (Homo sapiens, UniProt P35222); experiment: biochemical; assay type: binding; conditions: beta-Catenin FP IC50 (nM), competition fluorescence polarization
T1 construct: 10 nM full-length B-Catenin (Uniprot ID P35222)

SMILES | IC50 [1] [µM] | IC50 [2] [nM] | IC50 ([1]; absolute IC50) [µM]
CC(=O)N1CCC[C@]12CC=CCCCC1(CCCC=CCCCOC(=O)N3CC[C@@]4(C3)NC(=O)[C@H](CCC(=O)NCCCC[C@@H](C(N)=O)NC(=O)[C@H](Cc3csc5ccccc35)NC(=O)[C@H](Cc3ccsc3)NC4=O)NC(=O)[C@H](Cc3ccccc3)NC(=O)[C@H](C)NC(=O)[C@H](C)NC(=O)[C@H](Cc3cccc(C(=O)O)c3)NC(=O)[C@H](CC(=O)O)NC1=O)NC(=O)[C@H](CC(C)(C)C)NC(=O)[C@H](CC(=O)O)NC2=O (relative stereo) [I-33, Ac-PL3-Asp-Npg-B5-Asp-3COOHF-Ala-Ala-Phe-GlnR*3-PyrS2-3Thi-BztA-Lys*3-NH2] | 3 to 10 | < 50 | –
CC(=O)N1CCC[C@]12CC=CCCCC1(CCCC=CCCCOC(=O)N3CC[C@@]4(C3)NC(=O)[C@H](CCCCNC(=O)CC[C@@H](C(=O)N[C@@H](C)C(N)=O)NC(=O)[C@H](Cc3ccc(Cl)c(Cl)c3)NC(=O)[C@H](Cc3ccsc3)NC4=O)NC(=O)[C@H](Cc3ccccc3)NC(=O)[C@H](C)NC(=O)C(C)(C)NC(=O)[C@H](Cc3cccc(C(=O)O)c3)NC(=O)[C@H](CC(=O)O)NC1=O)NC(=O)[C@H](CC(C)(C)C)NC(=O)[C@H](CC(=O)O)NC2=O (relative stereo) [I-328, Ac-PL3-Asp-Npg-B5-Asp-3COOHF-Aib-Ala-Phe-Lys*3-PyrS2-3Thi-34ClF-GlnR*3-Ala-NH2] | – | < 50 | 1.5 to 3
CCCC[C@@H]1NC(=O)[C@H](Cc2cccc(C(=O)O)c2)NC(=O)[C@H](CC(=O)O)NC(=O)C2(CCCC=CCCCOC(=O)N3CC[C@@]4(C3)NC(=O)[C@H](CCCCNC(=O)CC[C@@H](C(=O)N[C@@H](C)C(N)=O)NC(=O)[C@H](Cc3csc5ccccc35)NC(=O)[C@H](Cc3ccccc3C(F)(F)F)NC4=O)NC(=O)[C@H](Cc3ccccc3)NC(=O)[C@H](C)NC1=O)CCCC=CC[C@]1(CCCN1C(C)=O)C(=O)N[C@@H](CC(=O)O)C(=O)N[C@@H](CC(C)(C)C)C(=O)N2 (relative stereo) [I-71, Ac-PL3-Asp-Npg-B5-Asp-3COOHF-nLeu-Ala-Phe-Lys*3-PyrS2-2F3MeF-BztA-GlnR*3-Ala-NH2] | 1.5 to 3 | < 50 | –
CC(=O)N1CCC[C@]12CC=CCCCC1(CCCC=CCCCOC(=O)N3CC[C@@]4(C3)NC(=O)[C@H](CCCCNC(=O)CC[C@@H](C(=O)N[C@@H](C)C(N)=O)NC(=O)[C@H](Cc3csc5ccccc35)NC(=O)[C@H](C)NC4=O)NC(=O)[C@H](Cc3ccccc3)NC(=O)[C@H](C)NC(=O)C(C)(C)NC(=O)[C@H](Cc3cccc(C(=O)O)c3)NC(=O)[C@H](CC(=O)O)NC1=O)NC(=O)[C@H](CC(C)(C)C)NC(=O)[C@H](CC(=O)O)NC2=O (single isomer, unassigned) [I-266, Ac-PL3-Asp-Npg-B5-Asp-3COOHF-Aib-Ala-Phe-Lys*3-PyrS2-Ala-BztA-GlnR*3-Ala-NH2] | > 10 | 200 to 750 | –
CC(=O)N1CCC[C@]12CC=CCCCC1(CCCC=CCCCOC(=O)N3CC[C@@]4(C3)NC(=O)[C@H](CCCCNC(=O)CC[C@@H](C(=O)N[C@@H](C)C(N)=O)NC(=O)[C@H](Cc3csc5ccccc35)NC(=O)[C@H](Cc3ccccc3C(F)(F)F)NC4=O)NC(=O)[C@H](Cc3ccccc3)NC(=O)[C@H](C)NC(=O)C(C)(C)NC(=O)[C@H](Cc3ccc(C(=O)O)cc3)NC(=O)[C@H](CC(=O)O)NC1=O)NC(=O)[C@H](CC(C)(C)C)NC(=O)[C@H](CC(=O)O)NC2=O (relative stereo) [I-196, Ac-PL3-Asp-Npg-B5-Asp-4COOHF-Aib-Ala-Phe-Lys*3-PyrS2-2F3MeF-BztA-GlnR*3-Ala-NH2] | 3 to 10 | 50 to 200 | –
CC(=O)N1CCC[C@]12CC=CCCCC1(CCCC=CCCCOC(=O)N3CC[C@@]4(C3)NC(=O)[C@H](CCCCNC(=O)CC[C@@H](C(=O)N[C@@H](C)C(N)=O)NC(=O)[C@H](Cc3csc5ccccc35)NC(=O)[C@H](CC(C)(C)C)NC4=O)NC(=O)[C@H](Cc3ccccc3)NC(=O)[C@H](C)NC(=O)C(C)(C)NC(=O)[C@H](Cc3cccc(C(=O)O)c3)NC(=O)[C@H](CC(=O)O)NC1=O)NC(=O)[C@H](CC(C)(C)C)NC(=O)[C@H](CC(=O)O)NC2=O (single isomer, unassigned) [I-277, Ac-PL3-Asp-Npg-B5-Asp-3COOHF-Aib-Ala-Phe-Lys*3-PyrS2-Npg-BztA-GlnR*3-Ala-NH2] | > 10 | 50 to 200 | –

Results, then the compound that gave them:

IC50 [1] [µM] | IC50 [2] [nM] | IC50 ([1]; absolute IC50) [µM] | SMILES
< 1.5 | < 50 | – | CC(=O)N1CCC[C@]12CC=CCCCC1(CCCC=CCCCOC(=O)N3CC[C@@]4(C3)NC(=O)[C@H](CCCCNC(=O)CC[C@@H](C(=O)N[C@@H](C)C(N)=O)NC(=O)[C@H](Cc3csc5ccccc35)NC(=O)[C@H](Cc3ccccc3[N+](=O)[O-])NC4=O)NC(=O)[C@H](Cc3ccccc3)NC(=O)[C@H](C)NC(=O)C(C)(C)NC(=O)[C@H](Cc3cccc(C(=O)O)c3)NC(=O)[C@H](CC(=O)O)NC1=O)NC(=O)[C@H](CC(C)(C)C)NC(=O)[C@H](CC(=O)O)NC2=O (relative stereo) [I-298, Ac-PL3-Asp-Npg-B5-Asp-3COOHF-Aib-Ala-Phe-Lys*3-PyrS2-2NO2F-BztA-GlnR*3-Ala-NH2]
– | < 50 | 1.5 to 3 | CC(=O)N1CCC[C@]12CC=CCCCC1(CCCC=CCCCOC(=O)N3CC[C@@]4(C3)NC(=O)[C@H](CCCCNC(=O)CC[C@@H](C(=O)N[C@H](C(=O)N[C@H](C(=O)N[C@@H](C)C(N)=O)[C@H](C)O)C(C)C)NC(=O)[C@H](Cc3csc5ccccc35)NC(=O)[C@H](Cc3ccsc3)NC4=O)NC(=O)[C@H](Cc3ccccc3)NC(=O)[C@H](C)NC(=O)C(C)(C)NC(=O)[C@H](Cc3cccc(C(=O)O)c3)NC(=O)[C@H](CC(=O)O)NC1=O)NC(=O)[C@H](CC(C)(C)C)NC(=O)[C@H](CC(=O)O)NC2=O (single isomer, unassigned) [I-510, Ac-PL3-Asp-Npg-B5-Asp-3COOHF-Aib-Ala-Phe-Lys*3-PyrS2-3Thi-BztA-GlnR*3-Val-aThr-Ala-NH2]
– | < 50 | < 1.5 | CC(=O)N1CCC[C@]12CC=CCCCC1(CCCC=CCCCOC(=O)N3CC[C@@]4(C3)NC(=O)[C@H](CCCCNC(=O)CC[C@@H](C(=O)N[C@H](C(=O)N[C@@H](C)C(N)=O)[C@@H](C)O)NC(=O)[C@H](Cc3csc5ccccc35)NC(=O)[C@H](Cc3ccsc3)NC4=O)NC(=O)[C@H](Cc3ccccc3)NC(=O)[C@H](C)NC(=O)C(C)(C)NC(=O)[C@H](Cc3cccc(C(=O)O)c3)NC(=O)[C@H](CC(=O)O)NC1=O)NC(=O)[C@H](CC(C)(C)C)NC(=O)[C@H](CC(=O)O)NC2=O (relative stereo) [I-406, Ac-PL3-Asp-Npg-B5-Asp-3COOHF-Aib-Ala-Phe-Lys*3-PyrS2-3Thi-BztA-GlnR*3-Thr-Ala-NH2]
3 to 10 | < 50 | – | CC(=O)N1CCC[C@]12CC=CCCCC1(CCCC=CCCCOC(=O)N3CC[C@@]4(C3)NC(=O)[C@H](CCCCNC(=O)CC[C@@H](C(=O)N[C@@H](C)C(N)=O)NC(=O)[C@H](Cc3csc5ccccc35)NC(=O)[C@H](CC3CCC3)NC4=O)NC(=O)[C@H](Cc3ccccc3)NC(=O)[C@H](C)NC(=O)C(C)(C)NC(=O)[C@H](Cc3cccc(C(=O)O)c3)NC(=O)[C@H](CC(=O)O)NC1=O)NC(=O)[C@H](CC(C)(C)C)NC(=O)[C@H](CC(=O)O)NC2=O (relative stereo) [I-283, Ac-PL3-Asp-Npg-B5-Asp-3COOHF-Aib-Ala-Phe-Lys*3-PyrS2-Cba-BztA-GlnR*3-Ala-NH2]
– | < 50 | 1.5 to 3 | CC(=O)N1CCC[C@]12CC=CCCCC1(CCCC=CCCCOC(=O)N3CC[C@@]4(C3)NC(=O)[C@H](CCCCNC(=O)CC[C@@H](C(=O)N[C@@H](CCC(=O)O)C(=O)N[C@@H](C)C(N)=O)NC(=O)[C@H](Cc3csc5ccccc35)NC(=O)[C@H](Cc3ccsc3)NC4=O)NC(=O)[C@H](Cc3ccccc3)NC(=O)[C@H](C)NC(=O)C(C)(C)NC(=O)[C@H](Cc3cccc(C(=O)O)c3)NC(=O)[C@H](CC(=O)O)NC1=O)NC(=O)[C@H](CC(C)(C)C)NC(=O)[C@H](CC(=O)O)NC2=O (relative stereo) [I-342, Ac-PL3-Asp-Npg-B5-Asp-3COOHF-Aib-Ala-Phe-Lys*3-PyrS2-3Thi-BztA-GlnR*3-Glu-Ala-NH2]
– | < 50 | < 1.5 | CC(=O)N1CCC[C@]12CC=CCCCC1(CCCC=CCCCOC(=O)N3CC[C@@]4(C3)NC(=O)[C@H](CCCCNC(=O)CC[C@@H](C(=O)N[C@@H](C)C(N)=O)NC(=O)[C@H](Cc3csc5ccccc35)NC(=O)[C@H](Cc3ccsc3)NC4=O)NC(=O)[C@H](Cc3ccccc3)NC(=O)[C@H](C)NC(=O)[C@H](Cc3ccccc3)NC(=O)[C@H](Cc3cccc(C(=O)O)c3)NC(=O)[C@H](CC(=O)O)NC1=O)NC(=O)[C@H](CC(C)(C)C)NC(=O)[C@H](CC(=O)O)NC2=O (relative stereo) [I-386, Ac-PL3-Asp-Npg-B5-Asp-3COOHF-Phe-Ala-Phe-Lys*3-PyrS2-3Thi-BztA-GlnR*3-Ala-NH2]
> 10 | 50 to 200 | – | CNC(=O)C[C@@H]1NC(=O)[C@]2(CC=CCCCC3(CCCC=CCCCOC(=O)N4CC[C@@]5(C4)NC(=O)[C@H](CCCCNC(=O)CC[C@@H](C(=O)N[C@@H](C)C(N)=O)NC(=O)[C@H](Cc4csc6ccccc46)NC(=O)[C@H](Cc4ccsc4)NC5=O)NC(=O)[C@H](Cc4ccccc4)NC(=O)[C@H](C)NC(=O)C(C)(C)NC(=O)[C@H](Cc4cccc(C(=O)O)c4)NC(=O)[C@H](CC(=O)O)NC3=O)NC(=O)[C@H](CC(C)(C)C)NC1=O)CCCN2C(C)=O (relative stereo) [I-164, Ac-PL3-MeAsn-Npg-B5-Asp-3COOHF-Aib-Ala-Phe-Lys*3-PyrS2-3Thi-BztA-GlnR*3-Ala-NH2]
3 to 10 | 50 to 200 | – | CC(=O)N1CCC[C@]12CC=CCCCC1(CCCC=CCCCOC(=O)N3CC[C@@]4(C3)NC(=O)[C@H](CCCCNC(=O)CC[C@@H](C(=O)N[C@@H](C)C(N)=O)NC(=O)[C@H](Cc3csc5ccccc35)NC(=O)[C@H](Cc3ccccc3C(F)(F)F)NC4=O)NC(=O)[C@H](Cc3ccccc3)NC(=O)[C@H](C)NC(=O)C(C)(C)NC(=O)[C@H]([C@H](C)O)NC(=O)[C@H](CC(=O)O)NC1=O)NC(=O)[C@H](CC(C)(C)C)NC(=O)[C@H](CC(=O)O)NC2=O (relative stereo) [I-216, Ac-PL3-Asp-Npg-B5-Asp-aThr-Aib-Ala-Phe-Lys*3-PyrS2-2F3MeF-BztA-GlnR*3-Ala-NH2]
